Drawing on PubChem BioAssay AID686954 (Sanford-Burnham Center for Chemical Genomics, 2013), this text covers inhibition for three compounds.

Sequences of proteins named here, by UniProt entry; tags and fusion partners are left off.
UniProt Q96SD1, whole entry: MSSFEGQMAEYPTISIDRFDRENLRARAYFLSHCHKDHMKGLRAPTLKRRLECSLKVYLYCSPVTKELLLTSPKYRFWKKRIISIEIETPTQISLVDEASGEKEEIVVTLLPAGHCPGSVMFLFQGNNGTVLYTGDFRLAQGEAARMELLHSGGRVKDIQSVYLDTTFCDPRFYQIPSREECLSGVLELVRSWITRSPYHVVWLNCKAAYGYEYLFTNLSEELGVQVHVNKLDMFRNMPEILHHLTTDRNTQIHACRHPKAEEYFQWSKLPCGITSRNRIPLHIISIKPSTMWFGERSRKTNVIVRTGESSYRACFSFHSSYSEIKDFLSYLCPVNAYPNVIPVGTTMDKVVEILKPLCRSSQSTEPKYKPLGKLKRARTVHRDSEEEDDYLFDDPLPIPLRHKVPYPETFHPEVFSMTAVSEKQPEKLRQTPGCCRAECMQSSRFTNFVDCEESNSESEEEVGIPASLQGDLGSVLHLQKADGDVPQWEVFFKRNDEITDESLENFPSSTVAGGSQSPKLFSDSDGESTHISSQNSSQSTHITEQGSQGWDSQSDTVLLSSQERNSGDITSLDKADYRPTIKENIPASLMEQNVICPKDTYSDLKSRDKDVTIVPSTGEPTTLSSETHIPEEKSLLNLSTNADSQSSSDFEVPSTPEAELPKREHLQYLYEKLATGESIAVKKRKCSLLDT

As usually defined, the inhibition is the change of the read-out against control, counted positive when it falls.

This is a selection; strong and weak results do not stand in their true shares. Some results for these compounds are left out of this collection, so the calls shown say nothing about other tests. The source made the active and inactive calls.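 How the source made its calls: active means at 10 µM dose, at least 30% inhibition, measured as corrected fluorescence normalized to stimulator and neutral control wells; inactive means the rest.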

The target of this assay is Protein artemis (Homo sapiens) (UniProt Q96SD1). Nature of the assay: Artemis endonuclease inhibitors, primary screen, biochemical, fluorescence intensity, FAM/BHQ-1 hairpin substrate (AID 686954). Conditions: recombinant Artemis, quenched FAM hairpin cleavage fluorescence; at 10 µM; stronger effect = higher value.
In the case of `O=C(OC1CN2CCC1CC2)C(CO)(c1ccccc1)c1ccccc1` (stereo not drawn), the inhibition is inactive: 0.71%.
The value for `CN(C)c1cccc(C(=O)NCC2(N(C)C)CCCCC2)c1` was inactive: -1.15%; that for `CC(C)N1C(=O)CC2(CCN(CCOC(=O)C(O)(c3ccccc3)c3ccccc3)CC2)C1=O` was inactive: 1.46%.
